Measurements: PubChem BioAssay AID1053197 (The Scripps Research Institute Molecular Screening Center, 2014)
This is a selection; strong and weak results do not stand in their true shares. The source made the active and inactive calls.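 How the source made its calls: active means inhibition above a cutoff: mean of compounds within the control limits plus 3 SD of those (cut at about 17% in these data); inactive means the rest.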

The chains behind the UniProt entries cited, without tags or fusion partners.
UniProt Q9HAT2, whole entry: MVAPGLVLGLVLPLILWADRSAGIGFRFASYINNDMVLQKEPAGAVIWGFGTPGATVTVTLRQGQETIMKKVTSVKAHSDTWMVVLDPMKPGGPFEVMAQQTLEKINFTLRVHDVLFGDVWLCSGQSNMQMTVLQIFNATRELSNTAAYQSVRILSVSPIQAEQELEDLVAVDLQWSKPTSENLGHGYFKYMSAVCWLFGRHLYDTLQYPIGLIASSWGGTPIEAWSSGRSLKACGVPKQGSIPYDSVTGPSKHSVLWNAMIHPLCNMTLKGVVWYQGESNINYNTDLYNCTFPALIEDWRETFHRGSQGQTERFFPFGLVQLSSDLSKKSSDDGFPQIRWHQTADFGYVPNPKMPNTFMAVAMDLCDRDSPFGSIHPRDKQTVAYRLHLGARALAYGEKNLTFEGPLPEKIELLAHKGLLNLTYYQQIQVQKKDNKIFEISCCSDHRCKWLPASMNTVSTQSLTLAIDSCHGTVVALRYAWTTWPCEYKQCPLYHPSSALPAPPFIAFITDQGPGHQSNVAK

Target: Sialate O-acetylesterase (Homo sapiens) (UniProt Q9HAT2)
Assay: human SIAE inhibitors, primary screen, biochemical, fluorescence polarization, FP-Rh probe, 1536-well HTS (AID 1053197);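 further: 0% = plate median of compound wells and 100% = probe without SIAE protein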
Conditions: SIAE FP-Rh probe binding, at 9.66 µM, stronger effect = higher value

| Structure (SMILES) | inhibition |
| --- | --- |
| CCC(c1nnnn1C1CCCCC1)N1CCC(n2c(=O)[nH]c3ccccc32)CC1 (stereo not given) | inactive: -5.07% |
| COc1cccc(C(c2nnnn2C2CCCCC2)N2CCC(n3c(=O)[nH]c4ccccc43)CC2)c1OC (stereo not given) | inactive: -0.13% |
| CC(=O)N(c1ccccc1)C1CCNCC1 | inactive: 7.13% |
| COc1cc(OC)cc(C(=O)NCC2(N3CCCCC3)CCCCC2)c1 | inactive: 1.25% |
| O=c1[nH]c2ccccc2n1C1CCN(C(c2ccnc3ccccc23)c2nnnn2C2CCCCC2)CC1 (stereo not given) | inactive: -6.19% |
| Fc1ccccc1NC1CCN(Cc2ccccc2)CC1 | inactive: -6.5% |
| Cc1ccc(C(=O)NCC2(N3CCCCC3)CCCCC2)o1 | inactive: 2.4% |
| Cc1ccc(NC2(C#N)CCN(Cc3ccccc3)CC2)cc1 | inactive: 0.74% |
| CCN1CCC(Nc2cccc(F)c2)CC1 | inactive: -3% |
| COc1ccc(C(c2nnnn2C2CCCCC2)N2CCC(n3c(=O)[nH]c4ccccc43)CC2)cc1 (stereo not given) | inactive: -4.56% |
| CC(C)(C)n1nnnc1C(c1ccnc2ccccc12)N1CCC(n2c(=O)[nH]c3ccccc32)CC1 (stereo not given) | inactive: -3.71% |
| Cc1ccccc1NC1(C#N)CCN(Cc2ccccc2)CC1 | inactive: -0.67% |
| CN(C)c1ccc(C(=O)NCC2(N3CCCCC3)CCCCC2)cc1 | inactive: 5.74% |
| Cn1c(=O)[nH]cc(N(CCCl)CCCl)c1=O | inactive: 4.75% |
| O=C(NCC1(N2CCCCC2)CCCCC1)c1ccco1 | inactive: -15.7% |
| CN1CCC(Nc2ccc(F)c(Cl)c2)CC1 | inactive: 0.83% |
| CCOc1ncccc1C(=O)NCC1(N2CCOCC2)CCCCC1 | inactive: -3.53% |
| NN(c1ccccc1)C1CCN(CCc2ccccc2)CC1 | inactive: 2.56% |
| O=C(O)C1(Nc2ccccc2)CCN(Cc2ccccc2)CC1 | inactive: 3.75% |
| CC(C)(C)OC(=O)N1CCC(Nc2ccccc2)CC1 | inactive: -1.21% |
| O=c1[nH]c2ccccc2n1C1CCN(C(c2cc3ccccc3o2)c2nnnn2C2CCCC2)CC1 (stereo not given) | inactive: -3.23% |
| CCCOc1ccc(C(=O)NCC2(N(C)C)CCCCC2)cc1 | inactive: 3.23% |

| Structure (SMILES) | inhibition |
| --- | --- |
| COc1cccc(C(=O)N(c2cc(C)cc(C)c2)C2CCN(C(=O)OC(C)(C)C)CC2)c1 | inactive: 5.75% |
| COc1cc(OC)cc(C(=O)NCC2(N3CCOCC3)CCCCC2)c1 | inactive: -1.21% |
| COc1cccc(C(c2nnnn2C2CCCC2)N2CCC(n3c(=O)[nH]c4ccccc43)CC2)c1OC (stereo not given) | inactive: -2.03% |
| CCC(CO)(C(=O)OC1CN2CCC1CC2)c1ccccc1 (stereo not given) | inactive: 2.82% |
| CN1CCC(Nc2ccc(Cl)cc2)CC1 | inactive: 9.3% |
| COc1cc(C(=O)NCC2(N3CCOCC3)CCCCC2)cc(OC)c1C | inactive: -9.08% |
| CCCCn1nnnc1C(c1ccccc1)N1CCC(n2c(=O)[nH]c3ccccc32)CC1 (stereo not given) | inactive: -3.23% |
| O=C(NCC1(N2CCOCC2)CCCCC1)c1cc(Br)ccc1Cl | inactive: 8.03% |
| NC(=O)C1(Nc2ccccc2)CCN(Cc2ccccc2)CC1 | inactive: -6.59% |
| O=c1[nH]c2ccccc2n1C1CCN(C(c2cccs2)c2nnnn2C2CCCCC2)CC1 (stereo not given) | inactive: 0.87% |
| O=c1[nH]c2ccccc2n1C1CCN(C(c2ccnc3ccccc23)c2nnnn2C2CCCC2)CC1 (stereo not given) | inactive: -1.35% |
| COc1ccc(C(=O)NCC2(N3CCOCC3)CCCCC2)cc1OC | inactive: 3.02% |
| CCOC(=O)N1CCC(Nc2ccc(C)cc2)CC1 | inactive: -1.36% |
| COc1cccc(C(c2nnnn2C(C)(C)C)N2CCC(n3c(=O)[nH]c4ccccc43)CC2)c1OC (stereo not given) | inactive: 4.66% |
| N/C(=N\O)c1c(N)no[n+]1[O-] | inactive: 0.78% |
| O=c1[nH]c2ccccc2n1C1CCN(C(c2cccs2)c2nnnn2C2CCCC2)CC1 (stereo not given) | inactive: -6.44% |
| O=C(OC1CN2CCC1CC2)C1c2ccccc2C=Cc2ccccc21 (stereo not given) | inactive: -0.74% |
| CCCCn1nnnc1C(c1cccc(OC)c1OC)N1CCC(n2c(=O)[nH]c3ccccc32)CC1 (stereo not given) | inactive: 2.25% |
| N#Cc1ccc(C(=O)NCC2(N3CCCCC3)CCCCC2)cc1 | inactive: -0.05% |
| CC(C)(C)OC(=O)N1CCC(N(C(=O)c2ccccc2)c2ccc(Cl)cc2)CC1 | inactive: -4.45% |
| CN(C)C1(CNC(=O)c2cccc(C#N)c2)CCCCC1 | inactive: -4.15% |
| Cc1cc(N(CCCl)CCCl)ccc1C=O | inactive: -2.51% |

| Structure (SMILES) | inhibition |
| --- | --- |
| CCCN1CCC(Nc2cc(OC)cc(OC)c2)CC1 | inactive: -3.07% |
| O=c1[nH]c2ccccc2n1C1CCN(C(c2ccccc2)c2nnnn2C2CCCC2)CC1 (stereo not given) | inactive: -0.26% |
| C/C(N)=N\P(=O)(Oc1ccccc1)Oc1ccccc1 | inactive: -4.58% |
| c1ccc(CN2CCC(Nc3ccccc3)CC2)cc1 | inactive: 3.68% |
| CC(C)(C)n1nnnc1C(c1cccc2ccccc12)N1CCC(n2c(=O)[nH]c3ccccc32)CC1 (stereo not given) | inactive: -6.73% |
| O=C(NCC1(N2CCCCC2)CCCCC1)c1ccc(OC(F)F)cc1 | inactive: -2.3% |
| CC(C)(C)n1nnnc1C(c1ccccc1OC(F)(F)F)N1CCC(n2c(=O)[nH]c3ccccc32)CC1 (stereo not given) | inactive: -6.22% |
| O=c1[nH]c2ccccc2n1C1CCN(C(c2ccccc2OC(F)(F)F)c2nnnn2C2CCCC2)CC1 (stereo not given) | inactive: -4.41% |
| N#CC1(Nc2ccccc2)CCN(CCc2ccccc2)CC1 | inactive: -1.96% |
| CCN1CCC(Nc2ccc(Cl)cc2)CC1 | inactive: 1.32% |
| O=C(NCC1(N2CCCCC2)CCCCC1)c1cccc([N+](=O)[O-])c1 | inactive: -7.09% |
| CSc1ccc(C(=O)NCC2(N3CCOCC3)CCCCC2)cc1 | inactive: -1.31% |
| O=C(NCC1(N2CCCCC2)CCCCC1)c1cccc(C(F)(F)F)c1 | inactive: -5.43% |
| O=C(NCC1(N2CCOCC2)CCCCC1)c1cc(=O)[nH]c2ccccc12 | inactive: 3.48% |
| COc1cc(C(=O)NCC2(N3CCCCC3)CCCCC2)ccc1OC(F)F | inactive: 10.5% |
| CC(C)c1ccc(C(=O)NCC2(N3CCOCC3)CCCCC2)cc1 | inactive: 5.69% |
| COc1ccc(NC2CCN(C(=O)OC(C)(C)C)CC2)cc1 | inactive: 5.85% |
| CN1CCN(CCOC(=O)C(O)(c2ccccc2)c2ccccc2)CC1 | inactive: -1.67% |
| CCCCn1nnnc1C(c1cccc2ccccc12)N1CCC(n2c(=O)[nH]c3ccccc32)CC1 (stereo not given) | inactive: -5.38% |
| CC(C)c1ccc(NC2CCN(C(=O)OC(C)(C)C)CC2)cc1 | inactive: 8.81% |
| CN(C)c1cccc(C(=O)NCC2(N3CCCCC3)CCCCC2)c1 | inactive: 3.84% |
| COc1ccc(CN(CCCl)CCCl)cc1Cl | inactive: -4.15% |

| Structure (SMILES) | inhibition |
| --- | --- |
| COC(=O)C1(Nc2ccccc2)CCN(Cc2ccccc2)CC1 | inactive: 4.24% |
| CCC(c1nnnn1C(C)(C)C)N1CCC(n2c(=O)[nH]c3ccccc32)CC1 (stereo not given) | inactive: 0.77% |
| O=C(NCC1(N2CCOCC2)CCCCC1)c1cc(F)c(F)cc1Cl | inactive: 3.76% |
| COc1cc(OC)c(C(=O)NCC2(N(C)C)CCCCC2)cc1OC | inactive: 1.91% |
| CCCCn1nnnc1C(c1ccnc2ccccc12)N1CCC(n2c(=O)[nH]c3ccccc32)CC1 (stereo not given) | inactive: 4.93% |
| CN1CCC(Nc2cccc(F)c2)CC1 | inactive: 5.84% |
| O=C(NCC1(N2CCCCC2)CCCCC1)c1cncc(Br)c1 | inactive: -0.5% |
| COc1ccc(C(c2nnnn2C2CCCC2)N2CCC(n3c(=O)[nH]c4ccccc43)CC2)cc1 (stereo not given) | inactive: -3.04% |
| CCCOc1ccc(C(=O)NCC2(N(C)C)CCCCC2)cc1OC | inactive: -5.85% |
| Cc1ccc(C(=O)NCC2(N(C)C)CCCCC2)o1 | inactive: 0.81% |
| CC(C)(C)OC(=O)N1CCC(N(C(=O)c2ccccc2)c2ccc(F)cc2)CC1 | inactive: 6.78% |
| COc1ccc(C(=O)NCC2(N3CCCCC3)CCCCC2)c(OC)c1OC | inactive: -0.78% |
| CCC(c1nnnn1C1CCCC1)N1CCC(n2c(=O)[nH]c3ccccc32)CC1 (stereo not given) | active: 17.7% |
| COc1ccc(C(=O)NCC2(N3CCCCC3)CCCCC2)cc1 | inactive: 1.18% |
| O=C(NCC1(N2CCCCC2)CCCCC1)c1cccs1 | inactive: 5.9% |
| CCCCn1nnnc1C(CC)N1CCC(n2c(=O)[nH]c3ccccc32)CC1 (stereo not given) | inactive: 1.82% |
| CCCCn1nnnc1C(c1cccs1)N1CCC(n2c(=O)[nH]c3ccccc32)CC1 (stereo not given) | inactive: 6.15% |
| O=C(NCC1(N2CCCCC2)CCCCC1)c1ccc(=O)[nH]c1 | inactive: 1.82% |
| Cc1cccc(NC2(C#N)CCN(Cc3ccccc3)CC2)c1 | inactive: -0.22% |
| CSc1ccccc1C(=O)NCC1(N2CCCCC2)CCCCC1 | inactive: 3.28% |
| Cc1cc(C)cc(N(C(=O)c2ccccc2)C2CCN(C(=O)OC(C)(C)C)CC2)c1 | inactive: 1.57% |
| O=C(NCC1(N2CCCCC2)CCCCC1)c1ccc(Cl)nc1 | inactive: 1.57% |

| Structure (SMILES) | inhibition |
| --- | --- |
| O=c1[nH]c2ccccc2n1C1CCN(C(c2ccccc2OC(F)(F)F)c2nnnn2C2CCCCC2)CC1 (stereo not given) | inactive: -4.38% |
| O=C(NCC1(N2CCOCC2)CCCCC1)c1cc2ccccc2o1 | inactive: -3% |
| COc1ccc(Cl)cc1C(=O)NCC1(N2CCOCC2)CCCCC1 | inactive: -14.2% |
| O=C(NCC1(N2CCCCC2)CCCCC1)c1ccc(Cl)s1 | inactive: -5.01% |
| N#CC1(Nc2ccccc2)CCN(Cc2ccccc2)CC1 | inactive: 4.26% |
| O=c1[nH]c2ccccc2n1C1CCN(C(c2cc3ccccc3o2)c2nnnn2C2CCCCC2)CC1 (stereo not given) | inactive: -10.2% |
| O=C(OC1CN2CCC1CC2)C1c2ccccc2Oc2ccccc21 (stereo not given) | inactive: 7.34% |
| CCCCn1nnnc1C(c1ccc(OC)cc1)N1CCC(n2c(=O)[nH]c3ccccc32)CC1 (stereo not given) | inactive: -4.37% |
| CCOC(=O)N1CCC(Nc2ccc(OC)cc2)CC1 | inactive: 2.39% |
| O=C1CCN(Cc2ccccc2)CC1 | inactive: -1.61% |
| CC(C)(C)n1nnnc1C(c1ccccc1)N1CCC(n2c(=O)[nH]c3ccccc32)CC1 (stereo not given) | inactive: -0.52% |
| CCOc1ccc(C)cc1CN(CCCl)CCCl | inactive: 1.33% |
| CCOC(=O)N1CCC(Nc2ccc(F)cc2)CC1 | inactive: -3.2% |
| COc1ccc(NC2CCN(CCc3ccccc3)CC2)c(OC)c1 | inactive: -2.9% |
| CCCCOc1ccc(C(=O)NCC2(N3CCOCC3)CCCCC2)cc1 | inactive: 2.06% |
| CCCCn1nnnc1C(c1cc2ccccc2o1)N1CCC(n2c(=O)[nH]c3ccccc32)CC1 (stereo not given) | inactive: -2.93% |
| O=P1(N(CCCl)CCCl)SCCCS1 | inactive: -3.34% |
| O=C(NCC1(N2CCCCC2)CCCCC1)c1ccc(F)cc1 | inactive: 0.96% |
| O=c1[nH]c2ccccc2n1C1CCN(C(c2ccccc2)c2nnnn2C2CCCCC2)CC1 (stereo not given) | inactive: -1.12% |
| CCOC(=O)N1CCC(Nc2cccc(C)c2)CC1 | inactive: -3.12% |
| COc1cc(C(=O)NCC2(N(C)C)CCCCC2)ccc1OC(F)F | inactive: -5.2% |
| O=c1[nH]c2ccccc2n1C1CCN(C(c2cccc3ccccc23)c2nnnn2C2CCCC2)CC1 (stereo not given) | inactive: -11% |
